Data as given in patent US7381572B2, “Reagents and procedures for multi-label high-specificity labeling” (Rutgers, The State University of New Jersey, priority 2004, dated 2008).

Assay: Spectroscopic properties of fluorochrome conjugates in methanol
Format: physicochemical
Settings: for λmax,em: emission maximum; for λmax,exc: excitation maximum

Cy3 bis-propionamido-phenylarsineoxide
λmax,em: 566 nm | λmax,exc: 552 nm

Cy5 bis-propionamido-phenylarsineoxide
λmax,em: 665 nm | λmax,exc: 647 nm
